Earlier results on 2 compounds are cited in US20200319191A1 (published 2020).

On to `COc1cc2ncnc(Nc3ccc(F)c(Cl)c3)c2cc1OCCCN1CCOCC1` [gefitinib], for which the “response by EGFR secondary mutation” value (T790M in exon 20) is listed as “mutation, T790M in exon 20, confers reduced response. Non-small cell lung cancer cancer”. For the same compound, the “sensitivity by EGFR gain-of-function mutations” value (in-frame deletions in exon 19 or point mutations in exon 21) is “point mutations in exon 21, confer sensitivity to first- and second-generation tyrosine”.
Turning to cetuximab, where the note is “non-small cell lung cancer patients overexpressing EGFR protein”, the “response by EGFR protein expression” value is listed as “patients overexpressing EGFR protein have been found to respond to the EGFR”. Moreover, the “clinical benefit by AREG expression” value (overexpression of AREG, primary colorectal cancer, KRAS wildtype patients) is “increased clinical benefit from cetuximab in KRAS wildtype patients”. Also, the “clinical outcome by EREG expression” value (overexpression of EREG, primary colorectal cancer, KRAS wildtype patients) is “Overexpression of EREG in primary colorectal cancer patients has been related to clinical”.
